Our source for the inhibition values is PubChem BioAssay AID624304 (Sanford-Burnham Center for Chemical Genomics, 2012).

Only a part is listed here, and it is no random draw. The source made the active and inactive calls.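 Rule for the calls: active = interference check ratio from 0.5 to 1.5 plus GFP to RFP signal ratio inhibition reaching or exceeding a fixed threshold (cut at about 30% in these data, passing the limit was not always enough); inactive = the rest.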

The nature of this assay: gst-4 reporter inhibition in live C. elegans – whole organism, uHTS, GFP/RFP fluorescence ratio, strain VP596, SKN-1 inhibitor project, primary screen (AID 624304). Conditions: C. elegans VP596 Pgst-4::GFP/RFP ratio, acrylamide-induced, 24 h; at 21.8 µM; hits give high values.
In the case of `CCC(=O)N(c1ccccc1)C1(COC)CCN(CCc2cccs2)CC1`, the inhibition is inactive: 12.6%.

`CCC(=O)N(c1ccccc1)C1(COC)CCN(CCn2nnn(CC)c2=O)CC1`: the inhibition is inactive: 9.59%.
